Amino acid sequences for entries named in this document (tags omitted).
UniProt P35372, whole entry, looked up: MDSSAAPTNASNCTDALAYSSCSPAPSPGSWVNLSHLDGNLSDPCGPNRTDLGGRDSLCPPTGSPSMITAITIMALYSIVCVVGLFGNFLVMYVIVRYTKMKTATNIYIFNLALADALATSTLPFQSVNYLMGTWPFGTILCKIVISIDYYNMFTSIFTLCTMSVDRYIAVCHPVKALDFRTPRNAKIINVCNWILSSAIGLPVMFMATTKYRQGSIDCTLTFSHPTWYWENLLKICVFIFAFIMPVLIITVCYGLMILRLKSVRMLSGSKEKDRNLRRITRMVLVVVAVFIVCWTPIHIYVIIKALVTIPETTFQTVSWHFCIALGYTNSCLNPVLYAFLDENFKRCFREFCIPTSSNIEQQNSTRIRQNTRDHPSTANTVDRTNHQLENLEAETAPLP

According to ChEMBL document CHEMBL4038325, “Opioid Receptor Modulators with a Cinnamyl Group” (J Med Chem, 2017):

Molecular target: Mu-type opioid receptor (Homo sapiens, UniProt P35372)
Details: hek-293t

Structure (SMILES): CC1CN(C/C(=C\c2ccccc2)C(=O)NCC(=O)O)CCC1(C)c1cccc(O)c1 (configuration not stated)
- IC50: 1260 nM
- pIC50: 5.89
